{"source": "PubChem BioAssay (Tox21)", "note": "“And” between values parts separate entries of the source, which are not always exact repeats. Equal entries are not always repeated. The entries are a selection whose mix differs from that of the whole data set. Results filed as inconclusive are left out. The source made the active and inactive calls. The call rests on the fitted dose curve; in most records, active means well fitted cell-killing curve with a large enough effect in the repeat runs; inconclusive means weak or mixed curves; inactive means no such curve, though single readings can be large or run the other way. On the % scale 0 is the no-effect control and ±100 the full control effect.", "data": [{"assay": "qHTS assay to identify small molecule antagonists of the androgen receptor (AR) signaling pathway - cell viability counter screen (AID 743033; further: nearly all actives have a fitted effect of over 45% in size)", "conditions": "AR-bla HEK293 viability, CellTiter-Glo luminescence, 16 h; at 27 µM (top of the series)", "from_the_text": "(§1) National Center for Advancing Translational Sciences [NCATS]\n(§2) NIH Chemical Genomics Center [NCGC]\n(§3) U.S. Environmental Protection Agency [EPA]\n(§4) National Institutes of Environmental Health Sciences [NIEHS]\n(§5) National Toxicology Program [NTP]\n(§6) U.S. Food and Drug Administration [FDA]\n(§7) Androgen receptor (AR), a nuclear hormone receptor, plays a critical role in AR-dependent prostate cancer and other androgen related diseases. Endocrine disrupting chemicals (EDCs) and their interactions with steroid hormone receptors like AR may cause disruption of normal endocrine function as well as interfere with metabolic homeostasis, reproduction, developmental and behavioral functions. To identify the compounds that inhibit AR signaling, GeneBLAzer AR-UAS-bla-GripTite cell line (Invitrogen, Carlsbad, CA, USA) containing a beta-lactamase reporter gene under control of an Upstream Activator Sequence (UAS) stably integrated into HEK293 cells was used to screen the Tox21 10K compound library. The cytotoxicity of the Tox21 compound library against the AR-bla cell line was tested in parallel by measuring the cell viability using CellTiter-Glo assay in the same wells.\n(§8) Tox21 Assay Protocol Summary:\n(§9) AR-bla cells were dispensed at 2,000 cells/5 uL of assay medium per well into black wall/clear-bottom 1536-well plates using a Multidrop Combi (ThermoFisher Scientific, Waltham, MA) dispenser. After the assay plates were incubated at a 37C and 5% CO2 for 4 hr, 23 nL of compounds dissolved in DMSO, positive controls or DMSO only was transferred to the assay plate by a Pintool station (Kalypsys, San Diego, CA), followed by addition of 1 uL of agonist (R1881) in culture medium using a Bioraptr Flying Reagent Dispenser (FRD) workstation (Beckman Coulter, Indianapolis, IN, USA). The plates were incubated at a 37C and 5% CO2 for 16 h. After 1 uL of LiveBLAzerTM B/G FRET substrate was added using a Bioraptr FRD, the plates were incubated at room temperature for 2 h and fluorescence intensity was measured by an Envision plate reader (PerkinElmer, Shelton, CT). For cell viability readout that measures cytotoxicity, 4 ul/well of CellTiter-Glo reagent was added into the assay plates using a Bioraptr FRD. After 30 min incubation at room temperature, the luminescence intensity in the plates was measured using a ViewLux (PerkinElmer) plate reader.", "values": [{"smiles": "C/C1=C2N=C(/C=C3N=C(/C(C)=C4\\[N-][C@@](C)([C@@H]5N=C1[C@](C)(CCC(=O)NC[C@@H](C)OP(=O)([O-])O[C@H]1[C@@H](O)[C@@H](n6cnc7cc(C)c(C)cc76)O[C@@H]1CO)[C@H]5CC(N)=O)[C@@](C)(CC(N)=O)[C@@H]4CCC(N)=O)[C@@](C)(CC(N)=O)[C@@H]\\3CCC(N)=O)C(C)(C)[C@@H]/2CCC(N)=O.[C-]#N.[Co+3]", "activity change, negative = cytotoxicity": "inactive: -23.3%"}]}, {"assay": "qHTS assay to identify small molecule antagonists of the androgen receptor (AR) signaling pathway - cell viability counter screen (AID 743033)", "conditions": "AR-bla HEK293 viability, CellTiter-Glo luminescence, 16 h; at 58.5 µM (top of the series)", "from_the_text": "as §1, §2, §3, §4, §5, §6, §7, §8, §9", "values": [{"smiles": "OCCSCCO", "activity change, negative = cytotoxicity": "inactive: -1.87%"}, {"smiles": "CC(C)N(CCCl)C(C)C", "activity change, negative = cytotoxicity": "inactive: -7.69%"}, {"smiles": "CCOP(=O)(CC)Oc1ccc([N+](=O)[O-])cc1", "note": "(stereo not drawn)", "activity change, negative = cytotoxicity": "inactive: 1.02%"}, {"smiles": "COP(C)(=O)OC", "activity change, negative = cytotoxicity": "inactive: 1.81%"}, {"smiles": "CC(C)OP(=O)(F)OC(C)C", "activity change, negative = cytotoxicity": "inactive: 6.29%"}, {"smiles": "[NH4+].[O-][Cl+3]([O-])([O-])[O-]", "activity change, negative = cytotoxicity": "inactive: -2.53%"}, {"smiles": "Cc1ccc([N+](=O)[O-])cc1[N+](=O)[O-]", "activity change, negative = cytotoxicity": "inactive: 0.0754% and inactive: 1.92%"}, {"smiles": "COc1ccc([N+](=O)[O-])cc1[N+](=O)[O-]", "activity change, negative = cytotoxicity": "inactive: 0.0533%"}, {"smiles": "O=[N+]([O-])c1cccc([N+](=O)[O-])c1", "activity change, negative = cytotoxicity": "inactive: 7.3%"}, {"smiles": "CCOP(=O)(CC)OCC", "activity change, negative = cytotoxicity": "inactive: 4.22%"}, {"smiles": "CC(C)N(CCO)C(C)C", "activity change, negative = cytotoxicity": "inactive: -4.84%"}, {"smiles": "CP(=O)(O)OCCC[Si](O)(O)O", "activity change, negative = cytotoxicity": "inactive: 1.39%"}, {"smiles": "CC(C)OP(C)(=O)OC(C)C", "activity change, negative = cytotoxicity": "inactive: 12.1% and inactive: 6.18%"}, {"smiles": "O=[N+]([O-])[O-].[NH4+]", "activity change, negative = cytotoxicity": "inactive: 0.323% and inactive: -1.36% and inactive: -31.5%"}, {"smiles": "O=[N+]([O-])OCC(CO[N+](=O)[O-])(CO[N+](=O)[O-])CO[N+](=O)[O-]", "activity change, negative = cytotoxicity": "inactive: -4.6% and inactive: 10.3%"}, {"smiles": "Cc1c([N+](=O)[O-])cccc1[N+](=O)[O-]", "activity change, negative = cytotoxicity": "inactive: -0.963% and inactive: 2.12%"}, {"smiles": "Cc1cccc([N+](=O)[O-])c1[N+](=O)[O-]", "activity change, negative = cytotoxicity": "inactive: -22.9%"}]}, {"assay": "qHTS assay to identify small molecule antagonists of the androgen receptor (AR) signaling pathway - cell viability counter screen (AID 743033)", "conditions": "AR-bla HEK293 viability, CellTiter-Glo luminescence, 16 h; at 78.9 µM (top of the series)", "from_the_text": "as §1, §2, §3, §4, §5, §6, §7, §8, §9", "values": [{"smiles": "OCCSCCO", "activity change, negative = cytotoxicity": "inactive: 0.328%"}, {"smiles": "CCN(CC)CCCl", "activity change, negative = cytotoxicity": "inactive: -11.6%"}, {"smiles": "COP(C)(=O)OC", "activity change, negative = cytotoxicity": "inactive: 0.228%"}, {"smiles": "[NH4+].[O-][Cl+3]([O-])([O-])[O-]", "activity change, negative = cytotoxicity": "inactive: -0.333%"}, {"smiles": "N=C(N)N[N+](=O)[O-]", "activity change, negative = cytotoxicity": "inactive: 6.77%"}]}]}
